Assay results from patent US20090105632A1 (priority 2007, published 2009).
Only a part of the results on these compounds is given; other tests are left out.

Settings: control fentanyl HCl runs

Compound: CCC(=O)N(c1ccccc1)C1CCN(CCc2ccccc2)CC1
- time up to which flux was good before falling quickly (depletion): 11 h
